Results: PMC9588801 (Anesthesiology, 2022)

Chains of the proteins cited; added tags and fusions are not shown. Residues count along the entry.
UniProt P14867, 28-456: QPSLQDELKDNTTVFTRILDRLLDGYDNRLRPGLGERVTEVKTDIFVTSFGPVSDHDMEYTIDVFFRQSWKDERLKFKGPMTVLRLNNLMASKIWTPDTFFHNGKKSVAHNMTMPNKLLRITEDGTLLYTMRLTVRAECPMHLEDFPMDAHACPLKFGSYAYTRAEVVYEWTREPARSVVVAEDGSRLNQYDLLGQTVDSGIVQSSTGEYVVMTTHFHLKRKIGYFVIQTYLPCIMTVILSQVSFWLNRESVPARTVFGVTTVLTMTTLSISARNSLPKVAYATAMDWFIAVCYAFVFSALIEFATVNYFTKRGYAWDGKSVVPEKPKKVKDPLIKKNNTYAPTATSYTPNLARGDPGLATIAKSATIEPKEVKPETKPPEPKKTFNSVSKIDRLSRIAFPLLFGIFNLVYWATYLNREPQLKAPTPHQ
UniProt P18507, 40-475: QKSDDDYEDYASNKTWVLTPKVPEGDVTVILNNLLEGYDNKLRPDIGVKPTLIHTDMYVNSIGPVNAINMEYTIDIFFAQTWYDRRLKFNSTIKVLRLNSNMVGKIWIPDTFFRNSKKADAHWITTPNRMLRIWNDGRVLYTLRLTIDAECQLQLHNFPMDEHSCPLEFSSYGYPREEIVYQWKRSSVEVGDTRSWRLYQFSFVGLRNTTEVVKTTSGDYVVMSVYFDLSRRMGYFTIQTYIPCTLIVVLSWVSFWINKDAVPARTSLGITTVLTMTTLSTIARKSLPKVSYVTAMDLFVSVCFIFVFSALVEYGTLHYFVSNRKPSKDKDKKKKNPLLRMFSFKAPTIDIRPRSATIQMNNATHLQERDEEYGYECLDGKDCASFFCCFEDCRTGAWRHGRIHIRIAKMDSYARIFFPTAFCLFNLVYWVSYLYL
UniProt P28472, 26-473: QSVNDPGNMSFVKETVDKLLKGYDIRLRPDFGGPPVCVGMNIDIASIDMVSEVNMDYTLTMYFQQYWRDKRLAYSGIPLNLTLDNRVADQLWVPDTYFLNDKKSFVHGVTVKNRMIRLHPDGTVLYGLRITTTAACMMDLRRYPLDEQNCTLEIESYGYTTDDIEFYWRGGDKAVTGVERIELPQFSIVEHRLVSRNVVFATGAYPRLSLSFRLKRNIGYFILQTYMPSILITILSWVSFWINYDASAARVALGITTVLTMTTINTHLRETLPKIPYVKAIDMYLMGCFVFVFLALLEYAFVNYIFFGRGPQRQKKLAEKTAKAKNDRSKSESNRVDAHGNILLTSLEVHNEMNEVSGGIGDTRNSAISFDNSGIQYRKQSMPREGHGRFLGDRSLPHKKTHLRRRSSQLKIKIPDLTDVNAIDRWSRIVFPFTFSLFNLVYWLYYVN

Molecular target: human α1β3γ2L GABAA receptor (Homo sapiens, UniProt P14867+P18507+P28472)

`CC(C)c1cccc(C(C)C)c1O` [propofol, 2,6 di-isopropyl phenol] gave an EC50 of 60 µM.
